Key:
PI3Kβ [1] = biological target: T1, PI3Kβ (Homo sapiens, UniProt P42338); assay: Biochemical assay of PI3K potency and selectivity using 20 μM ATP, Beta; design: His tag (pFastbac HTa vector) (N); FLAG (N); made in house; host or cells: Sf21 insect cells (baculovirus)
PI3Kβ [2] = biological target: T1, PI3Kβ; assay: Biochemical assay using 200 μM ATP, Beta
PI3Kγ = PI3Kγ (Homo sapiens, UniProt P48736); assay: Biochemical assay using 200 μM ATP, Gamma

By UniProt entry, the sequences of proteins in these tests, tags left out. Where a name states a change or a piece, a line headed by the entry shows the natural chain unless it says otherwise.
UniProt P42338: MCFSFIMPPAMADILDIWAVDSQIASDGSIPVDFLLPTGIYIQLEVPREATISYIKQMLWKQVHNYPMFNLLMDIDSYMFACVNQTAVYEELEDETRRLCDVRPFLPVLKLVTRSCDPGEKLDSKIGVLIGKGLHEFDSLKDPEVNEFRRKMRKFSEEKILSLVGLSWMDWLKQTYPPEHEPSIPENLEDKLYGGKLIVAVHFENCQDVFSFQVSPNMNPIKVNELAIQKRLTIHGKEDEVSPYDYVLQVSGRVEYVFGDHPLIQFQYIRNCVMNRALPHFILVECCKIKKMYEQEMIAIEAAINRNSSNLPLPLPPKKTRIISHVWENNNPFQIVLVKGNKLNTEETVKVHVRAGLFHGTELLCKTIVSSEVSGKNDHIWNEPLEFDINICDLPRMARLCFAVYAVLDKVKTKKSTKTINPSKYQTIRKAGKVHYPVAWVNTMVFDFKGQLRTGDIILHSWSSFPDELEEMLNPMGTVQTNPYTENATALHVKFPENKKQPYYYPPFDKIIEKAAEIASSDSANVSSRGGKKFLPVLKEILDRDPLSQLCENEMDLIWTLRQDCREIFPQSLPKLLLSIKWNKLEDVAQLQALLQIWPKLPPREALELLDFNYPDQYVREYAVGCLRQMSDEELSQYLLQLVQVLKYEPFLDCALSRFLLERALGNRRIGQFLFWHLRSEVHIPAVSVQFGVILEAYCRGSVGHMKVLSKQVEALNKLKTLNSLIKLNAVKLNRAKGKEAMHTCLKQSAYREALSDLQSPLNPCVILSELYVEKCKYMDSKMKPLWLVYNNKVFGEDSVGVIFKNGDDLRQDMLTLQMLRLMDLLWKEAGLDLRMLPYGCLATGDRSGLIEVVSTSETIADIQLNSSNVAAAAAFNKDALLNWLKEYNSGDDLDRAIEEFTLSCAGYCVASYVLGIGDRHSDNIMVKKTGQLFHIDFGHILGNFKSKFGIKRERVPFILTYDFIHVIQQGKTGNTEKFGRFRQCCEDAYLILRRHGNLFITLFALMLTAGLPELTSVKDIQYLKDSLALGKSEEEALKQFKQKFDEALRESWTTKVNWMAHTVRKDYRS
UniProt P48736: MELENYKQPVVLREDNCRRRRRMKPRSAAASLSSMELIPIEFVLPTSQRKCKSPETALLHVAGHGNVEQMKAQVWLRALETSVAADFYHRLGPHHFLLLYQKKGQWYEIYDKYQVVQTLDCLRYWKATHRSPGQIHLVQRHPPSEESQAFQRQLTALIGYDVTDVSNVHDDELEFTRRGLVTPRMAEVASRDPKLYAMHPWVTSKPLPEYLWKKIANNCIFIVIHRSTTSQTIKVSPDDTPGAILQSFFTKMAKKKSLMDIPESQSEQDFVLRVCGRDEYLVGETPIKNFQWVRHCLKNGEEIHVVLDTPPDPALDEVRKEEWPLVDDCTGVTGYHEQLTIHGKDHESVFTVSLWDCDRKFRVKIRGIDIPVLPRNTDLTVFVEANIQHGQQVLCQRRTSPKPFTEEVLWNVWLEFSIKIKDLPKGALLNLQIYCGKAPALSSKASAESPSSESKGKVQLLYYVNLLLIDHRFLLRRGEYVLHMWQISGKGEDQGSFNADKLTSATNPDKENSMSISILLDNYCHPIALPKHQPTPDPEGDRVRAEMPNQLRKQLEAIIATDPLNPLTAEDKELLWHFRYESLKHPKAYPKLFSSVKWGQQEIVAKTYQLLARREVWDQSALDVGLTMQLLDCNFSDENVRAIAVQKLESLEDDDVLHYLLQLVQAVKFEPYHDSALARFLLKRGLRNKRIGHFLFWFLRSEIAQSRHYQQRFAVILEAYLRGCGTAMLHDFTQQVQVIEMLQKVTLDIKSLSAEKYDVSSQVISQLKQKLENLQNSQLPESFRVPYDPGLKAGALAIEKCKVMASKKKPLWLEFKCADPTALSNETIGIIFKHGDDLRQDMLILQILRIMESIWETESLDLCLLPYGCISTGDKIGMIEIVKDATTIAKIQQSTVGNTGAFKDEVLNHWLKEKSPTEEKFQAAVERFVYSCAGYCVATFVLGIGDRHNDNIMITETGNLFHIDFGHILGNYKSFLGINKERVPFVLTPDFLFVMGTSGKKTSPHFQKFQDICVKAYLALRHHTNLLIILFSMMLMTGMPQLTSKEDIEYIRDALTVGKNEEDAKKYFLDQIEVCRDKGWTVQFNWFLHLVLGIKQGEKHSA

IC50 (PI3Kβ [1]; 20 μM ATP, read-out: Beta IC50): 0.4 µM
IC50 (PI3Kβ [1]; Example 2 assay conditions, limit of 100 μM compound, read-out: IC50, β isoform of PI3K (FIG. 1)): 0.3 to 1 µM
IC50 (PI3Kβ [2]): 3.7 ± 2 µM
IC50 (PI3Kγ): 29 ± 13 µM
SMILES: O=c1cc(N2CCOCC2)oc2c(-c3ccccc3)cccc12 [LY294002, reference compound]

— US20200061062A1, “INHIBITORS OF HUMAN PHOSPHATIDYLINOSITOL 3-KINASE DELTA” (ICOS Corporation, priority 2000, published 2020)
